Drawing on ChEMBL document CHEMBL2169790, “Selective inhibitors of aldo-keto reductases AKR1C1 and AKR1C3 discovered by virtual screening of a fragment library” (J Med Chem, 2012), this text covers Ki for two molecules.

The structures appear in SMILES notation.

Broadly, the Ki is a measure of affinity in units of concentration, obtained from inhibition or displacement.

The assay has as its target T1, Aldo-keto reductase family 1 member C1 (Homo sapiens, UniProt Q04828).
T1 sequence (Q04828 whole entry): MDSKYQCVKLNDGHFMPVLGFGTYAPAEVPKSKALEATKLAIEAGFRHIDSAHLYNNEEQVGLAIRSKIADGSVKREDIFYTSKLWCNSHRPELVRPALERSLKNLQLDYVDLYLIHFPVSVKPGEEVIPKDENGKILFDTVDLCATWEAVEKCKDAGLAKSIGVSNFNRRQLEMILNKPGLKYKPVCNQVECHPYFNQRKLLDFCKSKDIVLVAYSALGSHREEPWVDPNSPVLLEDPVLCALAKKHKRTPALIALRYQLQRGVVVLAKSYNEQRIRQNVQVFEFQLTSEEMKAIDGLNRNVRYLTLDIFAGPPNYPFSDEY
Kind of assay: Inhibition of human recombinant AKR1C1 assessed as 1-acenaphthenol oxidation by spectrophotometry.

For the molecule `NC(=O)c1ccccc1/N=C/c1cccc(O)c1O`, the Ki is 31 µM.
`O=C(O)CNC=C1C(=O)CC(c2ccccc2)CC1=O` (configuration not stated): the Ki was 56 µM.
